Bioassay records (PubChem BioAssay)
Rango release inh – prevents RanGTP from dissociating the Rango-importin beta complex. AID 540253. Biochemical FRET Rango-importin beta, RanGTP-induced dissociation. Potency, µM (doses to about 46.1 µM), inactives show top-dose activity change, negative = inhibition. O95149+P62826. 340,000 compounds, 0.071% hits; also: potency is read from the fitted curve at half-maximal effect; % of control where 0% means no effect; nearly all actives have a fitted effect of over 45% in size
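FRET read at 45 min, room temperature: inhibitors block the CFP/YFP signal rise when RanGTP (0.6 uM Ran, 2 mM GTP, 0.2 uM RCC1) frees Rango (0.1 uM) from importin beta (0.25 uM). Pre-read after 5 min compound exposure flags interference.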
KCNH2 WT inh – inhibitors of human wildtype KCNH2 potassium channel. Q12809. 340,000 compounds, 0.37% hits. activity change, % at 1.84 µM. U2OS, BacMam KCNH2, thallium flux FluxOr; hits give low values. AID 720551;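 active = maximum activity change below -70%; inconclusive = maximum activity change between -70% and -50%; inactive = maximum activity change above -50%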; also: % is scaled to controls: 0 for no effect and ±100 for the full control effect
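U2OS cells were transduced with wild-type KCNH2 virus (2.03 x 10^8 / mL) for 4 h at room temperature, then cultured overnight at 37 C. Thallium flux was read with FluxOr dye. Rate constants were normalized to DMSO controls.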
Rango-impB inh – inhibitors of Rango-importin beta complex formation. Q14974. Rango CFP/YFP FRET sensor + importin beta, 45 min. Potency, µM (doses to about 92.2 µM), for inactives: at the top dose inhibition of complex formation. 340,000 compounds, 0.031% hits. AID 540263;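 also: potency is read from the fitted curve at half-maximal effect; 0% = DMSO wells and 100% = buffer wells lacking importin beta; nearly all actives have a fitted effect of over 15% in size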
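FRET biosensor (snurportin 1 IBB flanked by EYFP and cerulean), 50 nM, with compound 5 min, then 0.125 microM importin beta in PBS, 1 mM DTT, 0.02% Tween-20, 0.1% BSA. CFP/YFP ratio read after 45 min at room temperature; pre-read flags interference.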
KCNH2 3.1 block – blocks the human KCNH2 3.1 channel isoform; U2OS KCNH2 3.1, thallium flux FluxOr; hits give low values; activity change, % (tested at about 1.8 µM); 340,000 compounds, 0.95% hits; AID 720553;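 active = maximum activity change below -70%; inconclusive = maximum activity change from -70% to -50%; inactive = maximum activity change above -50%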;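 also: thallium influx rate constant from kinetic fluorescence after stimulation buffer; % is scaled to controls: 0 for no effect and ±100 for the full control effect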
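Virally transduced U2OS (3.1 isoform, 4 h infection in dark at RT) → overnight 37 C → FluxOr + Red40 in HBSS/HEPES, 45 min → stimulation buffer, 2 min kinetic read → rate constant vs DMSO controls.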
* hit, by the source's call; u = inconclusive; x = not tested or not shown. Most compounds without a hit are left out; they make up all but 1.3% or so of the library. Unless noted, calls follow the shape of the full dose curve.

Under each structure: Rango release inh | KCNH2 WT inh | Rango-impB inh | KCNH2 3.1 block
CN(CC(=O)Nc1ccc(F)cc1)C(=O)COC(=O)c1nc(Cl)ccc1Cl
 : x | 6 | x | 0
COc1ccc(C(=O)O)cc1S(=O)(=O)Nc1ccc(Oc2ccccc2)cc1
 : 10% | -5 | 0% | -1
O=C(CSc1nnc(Cc2cccs2)n1-c1ccccc1)Nc1ccc2c(c1)OCCO2
 : 13% | 2 | 1% | 2
CCn1c(C)nnc1SCC(=O)Nc1ccc2c(c1)OCCO2
 : -6% | -26 | 5% | 4
CCn1c(SCC(=O)Nc2ccc3c(c2)OCCO3)nnc1-c1cccs1
 : 10% | -1 | 8% | -81*
Cc1ccc(-n2c(Cc3cccs3)nnc2SCC(=O)Nc2ccc(F)c(F)c2)cc1
 : -1% | -77* | 5% | -15
COc1ccccc1N1CCN(C(=O)CCC(=O)Nc2nnc(C(C)C)s2)CC1
 : 14% | 8 | 0% | -3
O=[N+]([O-])c1cccc2nc(-c3ccccc3)c(-c3ccccc3)nc12
 : -8% | -132* | -1% | -108*
Cn1c(-[n+]2c(-c3ccccc3)cc(-c3ccccc3)cc2-c2ccccc2)nc2c([N+](=O)[O-])cccc21
 : 5% | -6 | 3% | -19
Nc1c(OS(=O)(=O)c2ccccc2)cccc1OS(=O)(=O)c1ccccc1
 : x | 7 | x | 2
COC(=O)[C@H]1[C@H]2C[C@@H]3c4[nH]c5cc(OC)ccc5c4CCN3C[C@H]2C[C@@H](OC(=O)c2cc(OC)c(OC)c(OC)c2)[C@@H]1OC
 : 12µM* | -10 | u | -19
COC(=O)C1C2CC3c4[nH]c5cc(OC)ccc5c4CCN3CC2CC(OC2CCCCO2)C1OC (centres undefined)
 : x | -16 | x | u
Cc1cccc(Cn2c(C)nc3ccc([N+](=O)[O-])cc3c2=O)c1
 : 17% | 9 | 5% | 15
Cc1ccccc1Cn1c(C)nc2ccc([N+](=O)[O-])cc2c1=O
 : 0% | -12 | 58µM* | 2
COc1ccccc1NS(=O)(=O)c1cn(C)cn1
 : -24% | 20 | 1% | 7
Cc1ccc2cc(CCNC(=O)c3cc4ccccc4o3)c(=O)[nH]c2c1C
 : 20% | 2 | -4% | -2
COc1ccc2cc(CCNC(=O)c3cc4ccccc4o3)c(=O)[nH]c2c1
 : 6% | -80* | 0% | -4
O=C(/C=C/c1ccccc1)NC(=S)Nc1ccc(CN2CCOCC2)cc1
 : 9% | 0 | -1% | -85*
COc1ccc(/C=C/C(=O)NC(=S)Nc2ccc(N3CCN(C(C)=O)CC3)cc2)cc1
 : 10% | -174* | 0% | 10
COc1ccc(/C=C/C(=O)Nc2ccc(N3CCOCC3)cc2)cc1
 : -7% | 2 | -3% | 13

By substructure, those above with an NH in an aromatic ring.
Under each structure: Rango release inh | KCNH2 WT inh | Rango-impB inh | KCNH2 3.1 block
COC(=O)[C@H]1[C@H]2C[C@@H]3c4[nH]c5cc(OC)ccc5c4CCN3C[C@H]2C[C@@H](OC(=O)c2cc(OC)c(OC)c(OC)c2)[C@@H]1OC
 : 12µM* | -10 | u | -19
COC(=O)C1C2CC3c4[nH]c5cc(OC)ccc5c4CCN3CC2CC(OC2CCCCO2)C1OC (centres undefined)
 : x | -16 | x | u
Cc1ccc2cc(CCNC(=O)c3cc4ccccc4o3)c(=O)[nH]c2c1C
 : 20% | 2 | -4% | -2
COc1ccc2cc(CCNC(=O)c3cc4ccccc4o3)c(=O)[nH]c2c1
 : 6% | -80* | 0% | -4

Remaining list, next part
Under each structure: Rango release inh | KCNH2 WT inh | Rango-impB inh | KCNH2 3.1 block
CC(C)c1nccn1S(=O)(=O)c1cc(Cl)ccc1Cl
 : -2% | -5 | 4% | -2
COc1ccc(Cl)cc1S(=O)(=O)n1ccnc1C(C)C
 : -12% | 2 | -1% | -83*
Cc1cccc(C)c1NC(=O)CN(C)S(=O)(=O)c1ccc(-c2ccc(=O)[nH]n2)s1
 : 1% | 15 | 0% | -177*
COc1ccc(-c2nc(CNS(=O)(=O)c3ccc(OC)c(OC)c3)cs2)cc1
 : 24% | 4 | 6% | -114*
COc1ccc(S(=O)(=O)NCc2csc(C)n2)cc1OC
 : 9% | 7 | 4% | 2
COc1ccc(CCNC(=O)COC(=O)C23CC4CC(CC(Br)(C4)C2)C3)cc1
 : u | -88* | 0% | -18
Cc1ccc(S(=O)(=O)CCC(=O)N2CCN(c3ccc([N+](=O)[O-])cc3)CC2)cc1
 : 7% | -37 | 2% | -77*
Cc1ccc(N2CCN(CC(O)COc3cccc(C)c3)CC2)cc1 (centres undefined)
 : 31% | 32 | 0% | -25
Cc1ccc(N2CCN(CC(O)COc3ccc([N+](=O)[O-])cc3)CC2)cc1 (centres undefined)
 : 0% | -88* | 0% | -89*
Cc1nccn1CC(O)COc1ccc([N+](=O)[O-])cc1 (centres undefined)
 : 4% | -5 | 4% | -98*
O=[N+]([O-])c1ccc(OCC(O)CN2CCN(c3ccccc3F)CC2)cc1 (centres undefined)
 : 10% | -76* | -1% | -97*
Nc1nonc1-n1nnc(C(=O)N/N=C/c2ccco2)c1CSc1ccccc1
 : 2% | 19 | 0% | 7
COc1cccc(CN2C(=O)C(C)N(C(=O)c3ccccc3)c3ccccc32)c1 (centres undefined)
 : -8% | 9 | 1% | -13
Cc1ccc(C(=O)ON=C2CCN(c3ccc([N+](=O)[O-])cc3)CC2)cc1
 : -5% | -109* | 3% | -103*
Cc1ccc(C(=O)NC(=S)N2CCN(c3ccc([N+](=O)[O-])cc3)CC2)cc1
 : -2% | -30 | -2% | -47
COC(=O)CN1C(c2cccc(Cl)c2)=Nc2ccc(Cl)cc2C1c1ccccc1 (centres undefined)
 : 3% | 2 | 0% | -19
COC(=O)CN1C(c2ccc(OC)cc2)=Nc2ccc(Cl)cc2C1c1ccccc1 (centres undefined)
 : 27% | 9 | 0% | -96*
O=C(NC1CC1)c1nc(Cn2cc([N+](=O)[O-])cn2)no1
 : -10% | -73* | -3% | 3
O=C(NCc1ccccn1)c1nc(Cn2cc([N+](=O)[O-])cn2)no1
 : -6% | -1 | 6% | -17
CC(=O)Nc1ccc(S(=O)(=O)N2CCN(c3cc(C)nc4ccccc34)CC2)cc1
 : 16% | 1 | 7% | -34

(cont.)
Under each structure: Rango release inh | KCNH2 WT inh | Rango-impB inh | KCNH2 3.1 block
CC(=O)Nc1ccc(S(=O)(=O)N2CCN(c3nc(NC4CCCC4)c4ccccc4n3)CC2)cc1
 : 24% | -90* | 7% | -86*
O=C1c2ccccc2C(=O)N1CCCc1nc(-c2ccccn2)no1
 : -8% | -6 | 4% | -100*
NC(=O)C1CCN(C(=O)c2cc3ccccc3cc2O)CC1
 : -7% | -6 | -4% | 0
O=[N+]([O-])c1ccc(/C=N\NS(=O)(=O)c2ccc(F)cc2)o1
 : 3% | 12 | 0% | -85*
COc1ccc(S(=O)(=O)N/N=C\c2ccc([N+](=O)[O-])o2)c(OC)c1
 : -6% | -1 | -2% | 0
O=C(Oc1ccc(OC(=O)N2CCOCC2)cc1)c1ccccc1
 : -3% | -152* | -1% | -20
CC(=O)NC(Cc1ccccc1)C(=O)N1CCN(C(=O)c2cccs2)CC1 (centres undefined)
 : -5% | 5 | -9% | -94*
NC(=O)c1cccn1Cc1ccccc1Cl
 : 1% | -301* | -2% | 2
O=C(CSc1cn[nH]n1)Nc1ccc(Cl)cc1Cl
 : 1% | -10 | -2% | 6
O=C(COC(=O)c1cncc(Br)c1)Nc1nnc(-c2ccccc2)o1
 : -4% | -72* | -3% | 17
NC(=O)c1ccc2c(=O)c(O)c(-c3cc(Cl)c(N)c(Cl)c3)[nH]c2c1
 : -10% | 1 | 1% | -5
O=C(Cn1cc([N+](=O)[O-])ccc1=O)NCC(=O)Nc1ccc(F)c(F)c1F
 : 15% | 4 | 1% | 18

With a hit mark in Rango release inh, of those listed so far:
Compound,Rango release inh,Rango-impB inh
COC(=O)[C@H]1[C@H]2C[C@@H]3c4[nH]c5cc(OC)ccc5c4CCN3C[C@H]2C[C@@H](OC(=O)c2cc(OC)c(OC)c(OC)c2)[C@@H]1OC,12µM*,u
